Results published in doi:10.1101/2025.06.29.662197v2 (biorxiv, 2026).

Amino acid sequences for entries named in this document (tags omitted). Residues count along the entry.
UniProt Q9NZJ5, 536-1116 limits assumed: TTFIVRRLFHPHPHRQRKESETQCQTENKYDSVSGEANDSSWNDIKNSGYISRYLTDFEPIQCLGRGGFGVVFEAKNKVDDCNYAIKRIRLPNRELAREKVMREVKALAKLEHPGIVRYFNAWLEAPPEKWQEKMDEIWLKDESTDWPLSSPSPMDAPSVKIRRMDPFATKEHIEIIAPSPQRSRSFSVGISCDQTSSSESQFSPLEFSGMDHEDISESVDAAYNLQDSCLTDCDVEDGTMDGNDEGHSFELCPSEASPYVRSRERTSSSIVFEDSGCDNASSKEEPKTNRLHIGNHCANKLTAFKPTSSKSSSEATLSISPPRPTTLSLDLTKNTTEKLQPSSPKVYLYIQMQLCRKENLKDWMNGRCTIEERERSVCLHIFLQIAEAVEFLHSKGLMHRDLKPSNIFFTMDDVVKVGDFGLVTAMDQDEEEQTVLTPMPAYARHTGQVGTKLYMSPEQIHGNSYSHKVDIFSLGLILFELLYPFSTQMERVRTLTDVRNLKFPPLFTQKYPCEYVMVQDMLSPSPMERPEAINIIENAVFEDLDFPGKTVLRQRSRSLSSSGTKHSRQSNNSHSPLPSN

Target: human PERK (Carna Bioscience # 05-155) (Homo sapiens, UniProt Q9NZJ5)
Test: biochemical

IC50: 0.66 nM
Compound: Cn1cc(-c2ccc3c(c2)CCN3C(=O)Cc2cccc(C(F)(F)F)c2)c2c(N)ncnc21 [GSK2606414]
